Data reported in PubChem BioAssay (NCI).
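The compound was tested at five concentrations on cells cultured in 96-well plates, with a 48-hour exposure period. TGI: total growth inhibition.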

Columns and labels:
Experiment in all cases: NCI-60 cell line screen, 48 h
[1] = test system: 786-0 renal
[2] = test system: A549 NSCLC
[3] = test system: ACHN renal
[4] = test system: CCRF-CEM leukemia
[5] = test system: COLO 205 colon
[6] = test system: DU-145 prostate
[7] = test system: EKVX NSCLC
[8] = test system: HCC-2998 colon
[9] = test system: HCT-116 colon
[10] = test system: HCT-15 colon
[11] = test system: HL-60(TB) leukemia
[12] = test system: HOP-62 NSCLC
[13] = test system: HOP-92 NSCLC
[14] = test system: HS 578T breast
[15] = test system: HT29 colon
[16] = test system: IGROV1 ovarian
[17] = test system: K-562 leukemia
[18] = test system: KM12 colon
[19] = test system: LOX IMVI melanoma
[20] = test system: M14 melanoma
[21] = test system: MALME-3M melanoma
[22] = test system: MCF7 breast
[23] = test system: MDA-MB-231 breast
[24] = test system: MDA-MB-435
[25] = test system: MDA-N
[26] = test system: MOLT-4 leukemia
[27] = test system: NCI-H226 lung
[28] = test system: NCI-H23 lung
[29] = test system: NCI-H322M lung
[30] = test system: NCI/ADR-RES ovarian
[31] = test system: OVCAR-3 ovarian
[32] = test system: OVCAR-4 ovarian
[33] = test system: OVCAR-5 ovarian
[34] = test system: OVCAR-8 ovarian
[35] = test system: PC-3 prostate
[36] = test system: RPMI-8226 leukemia
[37] = test system: SF-268 CNS
[38] = test system: SF-295 CNS
[39] = test system: SF-539 CNS
[40] = test system: SK-MEL-2 melanoma
[41] = test system: SK-MEL-28 melanoma
[42] = test system: SK-MEL-5 melanoma
[43] = test system: SK-OV-3 ovarian
[44] = test system: SN12C renal
[45] = test system: SNB-75 CNS
[46] = test system: SR leukemia
[47] = test system: SW-620 colon
[48] = test system: T-47D breast
[49] = test system: TK-10 renal
[50] = test system: U251 CNS
[51] = test system: UACC-257 melanoma
[52] = test system: UACC-62 melanoma
[53] = test system: UO-31 renal

Measured: TGI

CCOP1(=O)N=C(NC2=NC(C(F)(F)F)(C(F)(F)F)N=C(C(F)(F)F)O2)N(C)C1(C)C (stereo not drawn)
> 100 µM: [1] | [2] | [3] | [4] | [5] | [6] | [7] | [8] | [9] | [10] | [11] | [12] | [13] | [14] | [15] | [16] | [17] | [18] | [19] | [20] | [21] | [22] | [23] | [24] | [25] | [26] | [27] | [28] | [29] | [30] | [31] | [32] | [33] | [34] | [35] | [36] | [37] | [38] | [39] | [40] | [41] | [42] | [43] | [44] | [45] | [46] | [47] | [48] | [49] | [50] | [51] | [52] | [53]
